# Data reported in US20220259284A1, “CA2 COMPOSITIONS AND METHODS FOR TUNABLE REGULATION” (Obsidian Therapeutics, Inc., priority 2019, published 2022).
# Tested on: CD40L constructs regulated by Carbonic anhydrase DDs in T cells
# Experiment: Acetazolamide dose response of CD40L expression in transduced T cells, FACS (MFI, % CD40L positive)
# Type: cell-based, human
# Settings: CD4+ T cells, Acetazolamide 0.05 μM, 24 hours
# Method: CD40L constructs regulated by Carbonic anhydrase DDs were generated and cloned into lentiviral vectors. Purified T cells were thawed and cultured with aCD3 aCD28 Dynabeads (in the ratio of 3 beads to 1 T cell).
# The constructs were transduced in T cells the next day. […] 24 hours after the addition of ligand T cells were stained for CD40L expression and analyzed using FACS.
smiles,measurement,value
CC(=O)Nc1nnc(S(N)(=O)=O)s1 [Acetazolamide],CD40L MFI,123
